Source: patent publication US12285421B2, “Uses of a 5-HT4 receptor agonist” (SUVEN LIFE SCIENCES LIMITED, priority 2018, dated 2025)

Legend:
[1] = tested on: Male CD1 mice; conditions: 30 mg/kg, p.o., 60 minutes prior to the trial, FIG. 6
[2] = tested on: Male Swiss albino mice; conditions: 30 minutes post treatment, last 4 minutes of 6 min, FIG. 7
[3] = tested on: Male Wistar rats; assay: Object recognition task, in vivo model for chemotherapy-induced (DOX) cognitive impairment; conditions: DOX 2.5 mg/kg i.p. induced cognitive impairment, FIG. 2

COCCCN1CCC(c2nnc(-c3nn(C(C)C)c4ccccc34)o2)CC1.O=C(O)C(=O)O [Compound-1, Isopropyl-3-{5-[1-(3-methoxypropyl)piperidin-4-yl]-[1,3,4]oxadiazol-2-yl}-1H-indazole oxalate]
aggression levels (duration of attack) [1]: decreased
duration of immobility [2]: significantly decreased
discriminative index [3]: significantly higher
